Results taken from US6849732B2, “Metalloproteinase inhibitors, pharmaceutical compositions containing them and their pharmaceutical uses, and methods and intermediates useful for their preparation” (Agouron Pharmaceuticals, Inc., priority 1995, dated 2005).
pKi: −log10 of the molar value. Structures can show the parent of a compound that is named as a salt.

Amino acid sequences for entries named in this document (tags omitted). Residues count along the entry.
UniProt P03956, 100-469 limits assumed: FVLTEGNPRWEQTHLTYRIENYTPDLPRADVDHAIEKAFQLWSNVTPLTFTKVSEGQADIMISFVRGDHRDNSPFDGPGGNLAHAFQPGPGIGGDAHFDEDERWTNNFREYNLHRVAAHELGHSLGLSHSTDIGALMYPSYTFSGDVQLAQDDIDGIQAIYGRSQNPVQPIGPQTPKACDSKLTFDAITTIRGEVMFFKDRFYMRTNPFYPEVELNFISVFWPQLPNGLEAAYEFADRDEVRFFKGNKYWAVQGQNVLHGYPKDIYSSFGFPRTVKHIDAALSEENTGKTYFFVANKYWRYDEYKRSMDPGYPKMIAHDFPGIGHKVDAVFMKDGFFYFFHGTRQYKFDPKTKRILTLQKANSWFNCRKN
UniProt P08253, 110-660 limits assumed: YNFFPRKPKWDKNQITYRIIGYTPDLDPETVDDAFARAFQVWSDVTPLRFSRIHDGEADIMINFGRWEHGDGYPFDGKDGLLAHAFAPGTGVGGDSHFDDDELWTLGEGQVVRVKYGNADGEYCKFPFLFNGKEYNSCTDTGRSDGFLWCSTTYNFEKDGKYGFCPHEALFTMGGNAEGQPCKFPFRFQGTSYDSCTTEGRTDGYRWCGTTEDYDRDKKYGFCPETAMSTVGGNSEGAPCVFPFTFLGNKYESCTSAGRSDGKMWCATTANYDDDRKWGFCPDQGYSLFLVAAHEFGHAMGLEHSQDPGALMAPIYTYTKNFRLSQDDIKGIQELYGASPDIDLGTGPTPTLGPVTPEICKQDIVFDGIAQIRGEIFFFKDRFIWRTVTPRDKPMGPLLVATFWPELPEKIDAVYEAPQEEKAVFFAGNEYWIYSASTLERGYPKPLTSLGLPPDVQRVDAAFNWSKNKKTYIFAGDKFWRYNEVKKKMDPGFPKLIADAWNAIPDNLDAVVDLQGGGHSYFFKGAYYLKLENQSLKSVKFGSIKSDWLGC
UniProt P08254, 100-477 limits assumed: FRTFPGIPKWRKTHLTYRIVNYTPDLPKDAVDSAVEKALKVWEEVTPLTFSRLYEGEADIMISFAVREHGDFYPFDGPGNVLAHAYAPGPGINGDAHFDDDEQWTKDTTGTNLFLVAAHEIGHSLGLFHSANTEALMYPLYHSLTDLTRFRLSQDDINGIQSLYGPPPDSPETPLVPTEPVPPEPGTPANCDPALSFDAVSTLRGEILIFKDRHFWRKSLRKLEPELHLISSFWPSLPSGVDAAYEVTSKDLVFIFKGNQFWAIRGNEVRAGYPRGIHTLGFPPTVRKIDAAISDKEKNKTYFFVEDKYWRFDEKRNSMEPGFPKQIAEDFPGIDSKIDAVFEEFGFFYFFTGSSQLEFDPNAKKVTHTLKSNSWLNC
UniProt P09237, 95-267 limits assumed: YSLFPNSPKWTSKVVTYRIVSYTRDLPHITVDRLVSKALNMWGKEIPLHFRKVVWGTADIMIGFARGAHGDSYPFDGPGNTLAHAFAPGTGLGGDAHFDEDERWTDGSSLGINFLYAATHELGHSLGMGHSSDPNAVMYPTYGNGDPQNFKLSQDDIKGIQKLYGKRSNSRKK

Key:
Type in all cases: biochemical
HFC = HFC (Homo sapiens, UniProt P03956); test: MCA fluorogenic enzyme assay, competitive inhibition analysis (Ki,app), HFC; conditions: read-out: Enzyme Inhibition Constants (K1) HFC, MCA peptide substrate, 37° C., pH 7.5
Coll3 = Coll3 (Homo sapiens, UniProt P45452); test: MCA fluorogenic enzyme assay, competitive inhibition analysis (Ki,app), Coll3; conditions: read-out: Enzyme Inhibition Constants (K1) Coll3, MCA peptide substrate, 37° C., pH 7.5
gelatinase A (HG72kD) = gelatinase A (HG72kD) (Homo sapiens, UniProt P08253); test: MCA fluorogenic enzyme assay, competitive inhibition analysis (Ki,app), gelatinase A; conditions: read-out: Enzyme Inhibition Constants (K1) HG72kD, MCA peptide substrate, 37° C., pH 7.5
stromelysin (HSLN) = stromelysin (HSLN) (Homo sapiens, UniProt P08254); test: MCA fluorogenic enzyme assay, competitive inhibition analysis (Ki,app), stromelysin; conditions: read-out: Enzyme Inhibition Constants (K1) HSLN, MCA peptide substrate, 37° C., pH 7.5
matrilysin (Matr.) = matrilysin (Matr.) (Homo sapiens, UniProt P09237); test: MCA fluorogenic enzyme assay, competitive inhibition analysis (Ki,app), matrilysin; conditions: read-out: Enzyme Inhibition Constants (K1) Matr., MCA peptide substrate, 37° C., pH 7.5

| Structure (SMILES) | pKi (HFC) | pKi (Coll3) | pKi (gelatinase A (HG72kD)) | pKi (stromelysin (HSLN)) | pKi (matrilysin (Matr.)) |
| --- | --- | --- | --- | --- | --- |
| O=C(NO)[C@H]1CNCCN1S(=O)(=O)c1ccc(Oc2ccc(F)cc2)cc1 [Example 10(b), 2(R)-N-hydroxy-1-(4-(4-fluorophenoxy)benzenesulfonyl)-piperazine-2-carboxamide hydrochloride] | 6.75 | 10.89 | 9.39 | 8.72 | 5.69 |
| CN1CCN(S(=O)(=O)c2ccc(Oc3ccc(Br)cc3)cc2)C(C(=O)NO)C1 (stereo not drawn) | 6.59 | 10.66 | 10.46 | 8.85 | 5.73 |
| CS(=O)(=O)N1CCN(S(=O)(=O)c2ccc(Oc3ccc(Cl)cc3)cc2)C(C(=O)NO)C1 (stereo not drawn) | 8.26 | 10.82 | 10.66 | 9.82 | 7.36 |
